These results are taken from ChEMBL document CHEMBL2346593, “Novel adamantyl cannabinoids as CB1 receptor probes” (J Med Chem, 2013).

Amino acid sequences for entries named in this document (tags omitted).
UniProt P20272, whole entry: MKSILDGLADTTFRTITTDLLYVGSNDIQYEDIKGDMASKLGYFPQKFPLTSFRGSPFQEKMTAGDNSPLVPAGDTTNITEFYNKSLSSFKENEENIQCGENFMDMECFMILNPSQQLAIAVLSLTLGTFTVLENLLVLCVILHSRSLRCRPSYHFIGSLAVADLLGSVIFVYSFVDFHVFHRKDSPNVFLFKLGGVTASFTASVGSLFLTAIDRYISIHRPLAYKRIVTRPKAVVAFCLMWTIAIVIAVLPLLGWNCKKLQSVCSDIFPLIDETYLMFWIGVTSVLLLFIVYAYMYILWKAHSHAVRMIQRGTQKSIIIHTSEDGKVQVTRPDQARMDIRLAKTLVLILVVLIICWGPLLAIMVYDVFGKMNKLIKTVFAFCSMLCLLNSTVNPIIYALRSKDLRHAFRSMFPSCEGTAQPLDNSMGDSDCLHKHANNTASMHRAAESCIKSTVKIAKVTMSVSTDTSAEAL

Assay [1] is described as follows: Selectivity ratio of Ki for mouse CB2 receptor to Ki for rat CB1 receptor.
Assay [2] in a line: Selectivity ratio of Ki for human CB2 receptor to Ki for rat CB1 receptor.
Another assay has as its target Cannabinoid receptor 1 (Rattus norvegicus, UniProt P20272). Put plainly: Displacement of [3H]CP-55940 from rat CB1 receptor expressed in rat brain membrane by competitive binding assay. The format is cell membranes. An outline of the steps: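 Competition-equilibrium binding against [3H]CP-55,940 in rat brain membranes (CB1), mouse spleen membranes (mCB2), or membranes of HEK293 cells expressing hCB2. IC50 was obtained by nonlinear regression and converted to Ki. Ki is the mean of three independent experiments, each run in duplicate.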
(In a radioligand displacement assay an active substance lowers the binding of a labelled ligand.)

`CC1(C)Oc2cc(C34CC5CC(CC(C5)C3)C4)cc(O)c2[C@@H]2C[C@H](O)CC[C@H]21`: the Ratio Ki in assay [1] came out at 1.6; in assay [2], 1.7.

As to `CC1=CC[C@@H]2[C@@H](C1)c1c(O)cc(C34CC5CC(CC(C5)C3)C4)cc1OC2(C)C`, in assay [1], the Ratio Ki is 7.6.

A word on the Ki: it is the equilibrium dissociation constant of an inhibitor or competing ligand from its target. Low readings indicate higher affinity, high ones lower affinity. `CC1(C)Oc2cc(C34CC5CC(CC(C5)C3)C4)cc(O)c2[C@@H]2CC(=O)CC[C@H]21`: the Ratio Ki in assay [1] was determined as 1.4; in assay [2], 1.9. The same compound showed a Ki on Cannabinoid receptor 1 of 176 nM.

For the compound `CC1(C)Oc2cc(C34CC5CC(CC(C5)C3)C4)cc(O)c2[C@@H]2C[C@@H](O)CC[C@H]21`, the Ratio Ki in assay [1] turned out to be 1.7; in assay [2] it was 4.6.
